## AlphaSeq binding of Ab-14 heavy chain variants to a spike HR2 peptide

Source: Li et al. 2023 (doi:10.1038/s41467-023-39022-2), MIT Lincoln Laboratory and A-Alpha Bio; data file from the FLAb repository.

Binding partner: SARS-CoV-2 spike HR2 peptide, sequence PDVDLGDISGINAS.

Each scFv is VH, three GGGGS repeats, VL, as in the parent Ab-14, and differs from it in the CDRs of the heavy chain only.
VH: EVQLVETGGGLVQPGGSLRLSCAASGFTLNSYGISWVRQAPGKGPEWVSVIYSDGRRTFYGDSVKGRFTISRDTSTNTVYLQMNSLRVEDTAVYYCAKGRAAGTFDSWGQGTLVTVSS
VL: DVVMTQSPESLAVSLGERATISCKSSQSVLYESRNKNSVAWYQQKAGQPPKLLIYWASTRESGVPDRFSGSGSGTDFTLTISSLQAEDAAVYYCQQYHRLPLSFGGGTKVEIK

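Phage display of a naive human antibody library on the peptide gave the parent. The variants were designed computationally from a first round of random CDR variants and then made and measured. Several design methods are mixed in this list. AlphaSeq pools MATa yeast showing the antibodies with MATalpha yeast showing the peptide. Mating (16 h, 30 °C) was followed by selection of diploids and sequencing of their barcodes. Read counts were normalised to the haploid input and turned into Kd by a linear fit to BCL2-family pairs of known affinity, for each replicate. Mating was done six times.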

Each variant is given by its three heavy chain CDRs, as the data file delimits them; those of the parent are GFTLNSYGIS, VIYSDGRRTFYGDSVK, GRAAGTFDS. This list holds designs with more than six substitutions. Kd is apparent (estimated from mating counts) and averaged on the log scale over replicates with a signal. Smaller is tighter. "no signal" marks a missing value. The strain was present, yet no cells mated with the target were sequenced in any replicate, which points to weak or no binding.

For GFNLDEYGIS / VIYADGMRTQYKDQVK / GNLVATVMT, the assay gave no signal (0 of 6 replicates).
For GFDLNEYGIS / VIYADGVRTFYADSVK / GNQAGTFDQ, the assay gave 290 pM (6 of 6 replicates).
For GFGLNEYGIS / VIYADGVRTAYLQNVK / GIVSGFDQT, the assay gave no signal (0 of 6 replicates).
For GFDLNEYGIS / VIYADGRRTAYIDSVK / GEAAGTFDT, the assay gave 150 pM (6 of 6 replicates).
For GFSIDEYGIS / VIYADGLRQHYTNAVK / GEAAGTFDM, the assay gave 3.2 nM (6 of 6 replicates).
For GFDLDEYGIS / VIYADGKRTAYADSVK / GENAGTFDQ, the assay gave 630 pM (6 of 6 replicates).
For GFDLNEYGIS / VIYADGRRTFYADSVK / GNQAGTFDM, the assay gave 260 pM (6 of 6 replicates).
For GFDLNEYGIS / VIYADGQRTFYTDSVK / GTDAGTFDV, the assay gave 8.0 nM (3 of 6 replicates).
For GFDLDEYGIS / VIYADGQRTAYTDSVK / GNVAGTFDI, the assay gave 330 pM (6 of 6 replicates).
For GFDINEYGIS / VIFADGMRTAYDNSVK / GQMAGFFIM, the assay gave no signal (0 of 6 replicates).
For GQDLEEYGIS / VIYADGIRTVYDQSVK / GHKGTTFYV, the assay gave no signal (0 of 6 replicates).
For GFDLNEYGIS / VIYADGRRTAYTDSVK / GANAGTFDM, the assay gave 400 pM (6 of 6 replicates).
For GYDLDDYGIS / VIYADGKRTSYAEDVK / GNIGGSLSN, the assay gave no signal (0 of 6 replicates).
For GFDLNEYGIS / VIYADGMRTAYSDNVK / GNVAGTFDL, the assay gave 260 pM (6 of 6 replicates).
For GFDLNEYGIS / VIYADGRRTYYADSVK / GETAGTFDV, the assay gave 330 pM (6 of 6 replicates).
For GFDLNEYGIS / VIYADGMRTAYVDSVK / GENAGTFDL, the assay gave 480 pM (6 of 6 replicates).
For GKGLDEYGVS / VIYADGKRKSYVDDVK / GGIAGNFLV, the assay gave no signal (0 of 6 replicates).
For GFGLDEFGIS / VIYADGLRSSYVDDVK / GELTGGFKV, the assay gave no signal (0 of 6 replicates).
For GADLNEYGIS / VIYADGRRVYYENSFK / GHVAGTFDS, the assay gave 880 pM (6 of 6 replicates).
For GFDLDEYGIS / VIYADGMRTAYSDKVK / GNVAGTFDV, the assay gave 1.5 nM (6 of 6 replicates).
For GFDLNEYGIS / VIYADGMRTQYSDSVK / GNAAGTFDS, the assay gave 1.2 nM (6 of 6 replicates).
For GFSLDEFGIS / VIYADGQRSAYSHNVK / GQHGGFTVS, the assay gave no signal (0 of 6 replicates).
For GFNLDEYGIS / VIYADGTRTNYLDTVK / GVTGGTFIM, the assay gave no signal (0 of 6 replicates).
For GFDLNEYGIS / VIYADGQRTYYADSVK / GENAGTFDI, the assay gave 13 nM (4 of 6 replicates).
For GFDLEEYGIS / VIYADGKRTAYADSVK / GQNAGTFDV, the assay gave 1.1 nM (6 of 6 replicates).
For GFDLNEYGIS / VIYADGRRTAYIDSVK / GETAGTFDL, the assay gave 320 pM (6 of 6 replicates).
For GMSLDEYGIS / VIYADGNRQVYIDKVK / GNYGGDFIE, the assay gave 72 nM (1 of 6 replicates).
For GFDLNEYGIS / VIYADGVRKAYADSVK / GNQAGTFDV, the assay gave 250 pM (6 of 6 replicates).
For GFDLNEYGIS / VIYADGRRTFYADSVK / GNEAGTFNM, the assay gave 300 pM (6 of 6 replicates).
For GFDLNEYGIS / VIYADGMRTFYADDVK / GENAGTFDT, the assay gave 220 pM (6 of 6 replicates).
For GFDLNEYGIS / VIYADGHRTKYSNNVK / GGQAGIALS, the assay gave no signal (0 of 6 replicates).
For GFDLNEYGIS / VIYADGMRKAYADNVK / GEVAGTFDL, the assay gave 390 pM (6 of 6 replicates).
For GFDLNEYGIS / VIYADGMRTFYADSVK / GQNAGTFDL, the assay gave 13 nM (6 of 6 replicates).
For GFDLNEYGIS / VIYADGKRTAYADNVK / GNNAGTFDV, the assay gave 520 pM (6 of 6 replicates).
For GFDLDEYGIS / VIYADGMRSAYADSVK / GNVAGTFDV, the assay gave 130 pM (6 of 6 replicates).
For GFELNEFGIS / VIYADGMRASYRNDVK / GEISGDFML, the assay gave no signal (0 of 6 replicates).
For GQDINEFGIS / VIYADGIRNQYADSFK / GQNGFFFDI, the assay gave no signal (0 of 6 replicates).
For GFDLNEYGIS / VIYADGQRQAYADSVK / GNVAGTFDV, the assay gave 260 pM (6 of 6 replicates).
For GFDLNEYGIS / VIYADGKRKAYADSVK / GNQAGTFDV, the assay gave 560 pM (6 of 6 replicates).

The closing 3 entries, repeated:

GQDINEFGIS / VIYADGIRNQYADSFK / GQNGFFFDI: no signal (0 of 6 replicates).
GFDLNEYGIS / VIYADGQRQAYADSVK / GNVAGTFDV: 260 pM (6 of 6 replicates).
GFDLNEYGIS / VIYADGKRKAYADSVK / GNQAGTFDV: 560 pM (6 of 6 replicates).

In the paper, a design with two or fewer of six values counts as a poor binder. Nonspecific signal, from three strains lacking the peptide, appeared in 1% of pairings of all heavy chain designs, centred on 120 nM (5% of these signals below 7.0 nM); values are not corrected for it. A sequence measured in both rounds can read differently, since the two assays cover different ranges.